Reference: patent US11275071B2, “Sensor dyes for real-time sensing of metal ions in aqueous environments” (UWM Research Foundation, Inc., priority 2015, dated 2022)

Details: 60 μM dye from DMSO stock, 0.5 mole equivalents of metal, 0.1 M MOPS buffer, 2 mM Triton X-100

With Quinoline Azo 3-Naphthoic Acid [QAN-3A] the “appearance of dye solution with metal” value was “cloudy and aggregation was seen”.
